The text below walks through data of ChEMBL document CHEMBL3352634 (Bioorg Med Chem Lett, 2014).

The subject of assay [1] is T1, Peroxisome proliferator-activated receptor alpha (Homo sapiens), Q07869 [T279A].
T1 sequence (whole entry): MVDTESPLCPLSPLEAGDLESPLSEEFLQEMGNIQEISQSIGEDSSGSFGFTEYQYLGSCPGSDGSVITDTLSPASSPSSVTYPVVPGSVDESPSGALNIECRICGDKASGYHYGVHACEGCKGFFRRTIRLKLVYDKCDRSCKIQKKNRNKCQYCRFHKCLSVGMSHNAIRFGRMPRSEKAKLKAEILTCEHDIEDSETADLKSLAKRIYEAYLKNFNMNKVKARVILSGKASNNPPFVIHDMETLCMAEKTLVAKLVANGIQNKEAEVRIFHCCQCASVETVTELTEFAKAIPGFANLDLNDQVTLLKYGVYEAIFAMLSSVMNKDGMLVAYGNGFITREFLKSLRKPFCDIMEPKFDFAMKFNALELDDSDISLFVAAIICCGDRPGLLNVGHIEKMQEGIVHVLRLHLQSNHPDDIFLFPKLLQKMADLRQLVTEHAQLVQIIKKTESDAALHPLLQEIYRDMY
Put plainly: Agonist activity at wild-type human PPARalpha Thr279Ala mutant expressed in COS7 cells after 12 hrs by Dual-Glo luciferase assay relative to control. It is filed as cell-based. The note with it: COS-7.

In assay [2] the target is T2, Peroxisome proliferator-activated receptor alpha (Homo sapiens) (UniProt Q07869).
T2 sequence (whole entry): T1 sequence (whole entry) with A279T
Put plainly: Agonist activity at wild-type human PPARalpha LBD expressed in COS7 cells after 12 hrs by Dual-Glo luciferase assay relative to control. The note with it: COS-7. Format: cell-based.

Structures are written as SMILES. Where a chain is given by its changes, count along the chain named.

On to `CC(C)(Sc1ccc(CCN(CCCCC2CCCCC2)C(=O)NC2CCCCC2)cc1)C(=O)O`, for which the %max in assay [1] was determined as 90%; in assay [2], 122%.
